Data published in patent US20060040917A1, “Benzoxazepine derivatives as selective estrogen receptor modulators” (priority 2004, published 2006).

By UniProt entry, the sequences of proteins in these tests, tags left out.
UniProt P03372, whole entry: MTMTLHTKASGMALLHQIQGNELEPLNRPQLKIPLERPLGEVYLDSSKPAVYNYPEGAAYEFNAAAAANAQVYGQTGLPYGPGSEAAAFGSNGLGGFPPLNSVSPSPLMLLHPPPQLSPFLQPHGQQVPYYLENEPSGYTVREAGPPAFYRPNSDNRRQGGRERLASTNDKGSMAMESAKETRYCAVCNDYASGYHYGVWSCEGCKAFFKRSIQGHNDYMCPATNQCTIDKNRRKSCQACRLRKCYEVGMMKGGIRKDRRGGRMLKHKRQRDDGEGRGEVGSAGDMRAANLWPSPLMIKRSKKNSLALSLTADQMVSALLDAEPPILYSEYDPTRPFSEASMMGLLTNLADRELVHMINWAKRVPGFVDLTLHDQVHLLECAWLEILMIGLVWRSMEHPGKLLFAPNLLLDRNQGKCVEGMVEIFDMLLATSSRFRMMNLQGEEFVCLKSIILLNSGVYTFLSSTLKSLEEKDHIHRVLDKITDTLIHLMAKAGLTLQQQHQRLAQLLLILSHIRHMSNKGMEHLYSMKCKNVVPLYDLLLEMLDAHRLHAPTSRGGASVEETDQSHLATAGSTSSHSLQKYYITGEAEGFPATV
UniProt Q92731, whole entry: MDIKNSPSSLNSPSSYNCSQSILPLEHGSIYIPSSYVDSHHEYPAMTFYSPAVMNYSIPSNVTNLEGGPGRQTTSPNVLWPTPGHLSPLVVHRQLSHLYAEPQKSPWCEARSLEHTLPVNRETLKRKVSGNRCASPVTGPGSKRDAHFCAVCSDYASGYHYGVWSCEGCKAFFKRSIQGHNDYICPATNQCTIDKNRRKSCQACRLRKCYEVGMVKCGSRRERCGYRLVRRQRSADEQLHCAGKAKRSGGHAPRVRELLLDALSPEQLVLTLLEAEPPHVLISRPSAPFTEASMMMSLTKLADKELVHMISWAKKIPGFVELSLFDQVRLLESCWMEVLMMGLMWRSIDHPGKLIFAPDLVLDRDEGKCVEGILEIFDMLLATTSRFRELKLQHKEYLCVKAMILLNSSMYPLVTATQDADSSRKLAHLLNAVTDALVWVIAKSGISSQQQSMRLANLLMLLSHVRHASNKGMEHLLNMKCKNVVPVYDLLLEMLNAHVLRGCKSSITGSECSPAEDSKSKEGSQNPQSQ

Experiments:
[1] = target: human estrogen receptor α (Homo sapiens, UniProt P03372); assay: Estrogen Receptor α Flash Plate Assay; details: read-out: ERα Binding IC50; displacement of radio-labeled estrogen (0.5 nM), FlashPlate, 1 h room temperature
Method: Estrogen Receptor α Flash Plate Assay
This assay monitors binding of radio-labeled estrogen to the estrogen receptor. It is performed on a BioMek 2000 (Beckman). Plates are read in a scintillation counter (Packard TopCount), with decreased counts an indication of binding of a compound to the receptor. The assay was run according to the procedure described by Allan, et al., Anal. Biochem. (1999), 275(2), 243-247.
On day one, 100 μL of Estrogen Screening Buffer (ESB, Panvera) containing 5 mM dithiothreitol (DTT, Panvera), 0.5 μg mouse anti-estrogen receptor monoclonal antibody (SRA-1010, Stressgen) and 50 ng purified human estrogen receptor α (Panvera) were added to each well of a 96 well FlashPlate Plus plate crosslinked with goat anti-mouse antibodies (NEN Life Sciences). The plate was sealed and incubated at 4° C. overnight.
On day two, each well was washed three times with 200 μL PBS, pH 7.2, at room temperature. To each well was then added 98 μL radio-labeled estrogen (0.5 nM, which equals 6 nCi for a 120 Ci/mmol batch, Amersham), diluted in ESB and 5 mM dithiothreitol (DTT). To individual wells were then added 2.5 μL test compound diluted in 30% (v/v) dimethyl sulfoxide/50 mM HEPES, pH 7.5. The wells were mixed three times by aspiration, the plate sealed and incubated at room temperature for one hour. The wells were then counted for 1 min in a TopCount scintillation counter (Packard). […]

hER-β = hER-β (Homo sapiens, UniProt Q92731); assay: Estrogen Receptor β Fluorescence Polarization Assay; details: read-out: ERβ Binding IC50; displacement of Fluormone ES2, fluorescence polarization, 1 h room temperature
Excerpt: Estrogen Receptor β Fluorescence Polarization Assay
This assay monitors binding of a fluorescent analog of estrogen (Fluormone ES2, Panvera) to the estrogen receptor. Plates are read in a fluorometer that can be set to polarization mode. A decrease in […] relative to vehicle control is an indication of binding of a compound to the receptor.
It is crucial to avoid introduction of air bubbles into the reaction in each well of the 96 well plate throughout this procedure. (Bubbles on the surface of the reaction disrupt light flow, affecting the polarization reading.) However, it is also crucial to effectively mix the reaction components upon addition to the well.
On ice, a 2× standard mixture of Assay Buffer (Panvera), 10 nM DTT and 40 nM ES2 was prepared. On ice, a 2× reaction mixture of Assay Buffer (Panvera), and 20 nM hER-β (Panvera) and 40 nM ES2 was also prepared.
Dilutions of test compound were prepared in 30% (v/v) dimethyl sulfoxide/50 mM HEPES, pH 7.5. At this point, the dilutions were 40× the final required concentration.
The standard mixture at 50 μL was then added to each well. The reaction mixture at 48 μL was added to all wells. The compound dilution at 2.5 μL was added to the appropriate wells. […]
Each well on the plate was then read in an LjL Analyst with an excitation wavelength of […] and an emission wavelength of 538. […]

IC50 [1]: 2900 nM | IC50 (hER-β): 1200 nM
SMILES: O=C(c1ccccc1)N1CC(c2ccc(O)cc2)COc2cc(O)ccc21 (centres unmarked)
